Measurements taken from patent US12570711B2, “Platforms for co-stimulation, novel car designs and other enhancements for adoptive cellular therapy” (Angeles Therapeutics, Inc., priority 2017, dated 2026).

Assays:
CD3+ve T cells = assay: Proliferation of T cells after lentiviral expression of NEMO mutants (cell numbers, long term culture); type: cell-based, human; conditions: expression in T cells
Description: Thus, the disclosure provides composition and methods to enhance the survival, proliferation, cytokine secretion, delay exhaustion and senescence and improve the in vivo expansion, persistence and anti-tumor activity of an immune cell, e.g., T cell, e.g., CAR-T or TCR-T or SIR-T cell, and/or an immune cell expressing a non-naturally occurring immune receptor, via selective or preferential (i.e., without AKT activation) activation of the NF-κB pathway in the immune cell.
Buffy coat cells were obtained from healthy de-identified adult donors from the Blood Bank at Children Hospital of Los Angeles and used to isolate peripheral blood mononuclear cells (PBMC) by Ficoll-Hypaque gradient centrifugation. PBMC were either used as such or used to isolate T cells using CD3 magnetic microbeads (Miltenyi Biotech) and following the manufacturer's instructions. PBMC or isolated T cells were re-suspended in XVIVO medium (Lonza) supplanted with 10 ng/ml CD3 antibody, 10 ng/ml CD28 antibody and 100 IU recombinant human-IL2. Cells were cultured at 37° C., in a 5% CO2 humidified incubator. Cells were activated in the above medium for 1 day prior to infection with lentiviral vectors. In general, primary cells (e.g. T cells) were infected in the morning using spin-infection (1800 rpm for 90 minutes at 37° C. with 300 μl of concentrated virus that had been re-suspended in XVIVO medium in the presence of 8 μg/ml of Polybrene® (Sigma, Catalog no. H9268). The media was changed in the evening and the infection was repeated for two more days for a total of 3 infections. After the 3rd infection, the cells were pelleted and resuspended in fresh XVIVO media containing 10 ng/ml CD3 antibody, 10 ng/ml CD28 antibody and 100 IU recombinant human-IL2 and supplemented with respective antibiotics (if indicated) and place in the cell culture flask for selection, unless indicated otherwise. Cells were cultured in the above medium for 10-15 days in case no drug selection was used and for 20-30 days in case drug-selection was used. In cases, where cells were infected with a lentivirus expressing EGFP, they were expanded without drug-selection or flow-sorted to enrich for EGFP-expressing cells. For infection of cancer cell lines, approximately 500,000 cells were infected with 2 ml of the un-concentrated viral supernatant in a total volume of 3 ml with Polybrene® (Sigma, Catalog no. H9268). Then next morning, the cells were pelleted and resuspended in the media with respective antibiotics and place in the cell culture flask for selection.
The mouse NEMO-K270A (SEQ ID NO: 992) is known to activate NF-κB constitutively. […] Cells were cultured at 37° C., in a 5% CO2 humidified incubator, and after 1 day infected with a lentiviral vector (pLENTI-EGFP-Blasticidin) expressing EGFP and lentiviral vectors expressing mouse NEMO-K270A mutants (pLENTI-mNEMO-K270A-FLAG-Blasticidin and pLENTI-mNEMO-K270A-HA-Blasticidin), or mouse NEMO-wt (pLENTI-mNEMO-FLAG-Blasticidin). The sequences of mNEMO-K270A and mNEMO-wt are provided in SEQ ID NOs: 992 and 991, respectively. Approximately 1 day post-infection, cells were selected with blasticidin and cell numbers calculated periodically.

Nalm-6-Luc cells = assay: NSG mice xenografted with Nalm-6-Luc cells treated with CAR/SIR-T cells; type: in vivo, mouse; conditions: compared to 2nd generation CAR construct containing the 41BB costimulatory domain
Experimental: After 10 days of expansion, the CAR/SIR-T cells are used for in vivo experiment. For this purpose, NSG mice are injected with 10^6 Nalm-6-Luc cells via tail vein injection. Two days later, 3×10^6 CAR/SIR-T cells injected. Mice are imaged weekly by bioluminescence imaging following administration of D-Luciferin and followed for survival.
In addition, T cells expressing the first generation CARs along with hNEMO-K277A (SEQ ID NO: 1594-1604) show less signs of exhaustion as measured by cell proliferation, cytokine (IL2, IFNγ, TNFα) production, expression of exhaustion markers (e.g., PD1) and cytotoxicity (Matador cytotoxicity assay) when cocultured with RAJI cells over 3 weeks period as compared to T cells expressing 2nd generation CARs (SEQ ID NO: 1594-1604) with a BBz costimulatory domain. […] The T cells expressing the first generation CARs along with hNEMO-K277A (Backbone 2; SEQ ID NO: 1594-1604) in general show weaker production of cytokines (e.g., IL2, IFNγ and TNFα) when exposed to RAM cells as compared to T cells expressing first generation CARs and coexpressing vFLIP K13 (i.e., Backbone 1; SEQ ID NO: 1016-1029).

NF-κB = assay: Doxycycline-inducible expression (pSLIK-Tet-On) in T cells, NF-κB activity by Phospho-IκBα antibody and flow cytometry; type: cell-based; conditions: pSLIK-Tet-On vector in T cells
Experimental: The expression of these costimulatory proteins can be controlled by expressing them using inducible promoters known in the art, such as Tet-inducible promoter or RheoGene system. In an embodiment, hNEMO-K277A mutant and hNEMO-K277A-DeltaV249-K255 are cloned in the pSLIK-Tet-On vector (Gopalakrishnan et al, Clinical Cancer Res; 19(18), 2013) and the resulting virus is used to infect T cells. […] NF-κB activity is measured by AlexaFlour-conjugated Phospho-IκBα antibody and flow cytometry.

BM-derived DCs = assay: IL-12p70 and TNF-α ELISA of dendritic cell culture supernatants; type: cell-based, mouse; conditions: culture of transduced DCs
Experimental: ELISA. Culture supernatants are harvested from DCs plated at 5×10^5 cells per well (in 1.5 ml). IL-12p70 and tumor necrosis factor alpha (TNF-α) are detected by sandwich enzyme-linked immunosorbent assay (ELISA), using kits from eBioscience according to the manufacturer's guidelines.
After transduction of BM-derived DCs with human NEMO-K277A-, human NEMO-K277A-deltaV249-K255-, mouse NEMO-K270A- and IKK2-S177E-S181E, maturation markers on the transduced or nontransduced cells are analyzed.

hNEMO-K277A: human NEMO mutant K277A, constitutively active selective NF-κB activator used as accessory module
ability of T cells to proliferate long term in culture (CD3+ve T cells): extends their ability to proliferate long term in culture without undergoing senescence | in vivo efficacy of CD19-CAR constructs lacking any costimulatory domain (Nalm-6-Luc cells): superior in vivo efficacy | expression and NF-κB activity on doxycycline treatment (NF-κB): induce hNEMO-K277A and hNEMO-K277A-DeltaV249-K255 expression and NF-κB activity | secretion of IL-12p70 and TNF-α (BM-derived DCs): upregulated

B1: hNEMO-K277A-DeltaV249-K255: mutant lacking aminoacid residues V249-K255 of human NEMO and carrying the K277A mutation (protein)
chain: MNRHLWKSQLCEMVQPSGGPAADQDVLGEESPLGKPAMLHLPSEQGAPETLQRCLEENQELRDAIRQSNQILRERCEELLHFQASQREEKEFLMCKFQEARKLVERLGLEKLDLKRQKEQALREVEHLKRCQQQMAEDKASVKAQVTSLLGELQESQSRLEAATKECQALEGRARAASEQARQLESEREALQQQHSVQVDQLRMQGQSVEAALRMERQAASEEKRKLAQLQVAYHQLFQEYDNHIKSSRGMQLEDLKQQLQQAEEALVAAQEVIDKLKEEAEQHKIVMETVPVLKAQADIYKADFQAERQAREKLAEKKELLQEQLEQLQREYSKLKASCQESARIEDMRKRHVEVSQAPLPPAPAYLSSPLALPSQRRSPPEEPPDFCCPKCQYQAPDMDTLQIHVMECIE
ability of T cells to proliferate long term in culture (CD3+ve T cells): extends their ability to proliferate long term in culture without undergoing senescence | in vivo efficacy of CD19-CAR constructs lacking any costimulatory domain (Nalm-6-Luc cells): superior in vivo efficacy | expression and NF-κB activity on doxycycline treatment (NF-κB): induce hNEMO-K277A and hNEMO-K277A-DeltaV249-K255 expression and NF-κB activity | secretion of IL-12p70 and TNF-α (BM-derived DCs): upregulated
